AlphaSeq binding of Ab-91 heavy chain variants to a spike HR2 peptide

From the AlphaSeq antibody data of Engelhart et al. 2022 (doi:10.1038/s41597-022-01779-4), copy in the FLAb collection.

All variants were tested on one target, the spike HR2 peptide PDVDLGDISGINAS (SARS-CoV-2).

Each scFv is VL, the linker GGGGSGGGGSGGGGS, VH, as in the parent Ab-91, and differs from it in the CDRs of the heavy chain only.
VL: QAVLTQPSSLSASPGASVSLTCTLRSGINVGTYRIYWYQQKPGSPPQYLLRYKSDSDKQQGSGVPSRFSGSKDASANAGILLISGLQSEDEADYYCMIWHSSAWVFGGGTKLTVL
VH: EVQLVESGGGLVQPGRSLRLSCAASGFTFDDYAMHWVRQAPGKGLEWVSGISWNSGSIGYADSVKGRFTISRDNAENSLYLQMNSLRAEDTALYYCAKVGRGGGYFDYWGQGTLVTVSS

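Phage display of a naive human antibody library on the peptide gave the parent. The library (AAYL51) carries one to three amino acid substitutions per variant, with no insertions or deletions. AlphaSeq pools MATa yeast showing the antibodies with MATalpha yeast showing the peptide. Binding brings cells together so that they mate, and sequencing counts the barcode pairs among the diploids. Scores were corrected for input abundance and mapped to Kd with protein pairs of known affinity run in the same pool. There are three technical replicates.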

Substitutions are numbered in sequence along the VH above, starting at 1 (not Kabat). This list gathers variants with a substitution at S55 (VH, numbered from residue 1). Kd is apparent (estimated from mating counts) and averaged on the log scale over replicates with a signal. Smaller is tighter. Where no diploid with the target was found in any replicate, the entry reads "no signal": below detection, most likely a poor binder, though not proof of it. For reference, the parent read 72 nM as the reference entry and 7.5 nM as a member of this library.

With G26K S55H the result was no signal (0 of 3 replicates). With G50P W53C S55V the result was no signal (0 of 3 replicates). For S55D D62Y V99T, the assay gave 1.9 µM (1 of 3 replicates). Variant D30R D31P S55T gave 20 µM (1 of 3 replicates). Variant H35G S55W S57L showed no signal (0 of 3 replicates).

Variant N54A S55G G100M showed 180 µM (3 of 3 replicates). Variant S55Q G56K V64C gave no signal (0 of 3 replicates). With M34Y H35Y S55M the result was no signal (0 of 3 replicates). Variant I51V S55A A61M gave 45 µM (2 of 3 replicates). Variant F29I S55E Y60C gave 8.4 µM (1 of 3 replicates).

Variant F27G S55F G102C gave no signal (0 of 3 replicates). For S55I G56D D62Y, the assay gave no signal (0 of 3 replicates). For A33H M34V S55C, the assay gave no signal (0 of 3 replicates). Variant W53L S55M G102H showed no signal (0 of 3 replicates). With S52W S55I the result was no signal (0 of 3 replicates).

With S55V S63F the result was no signal (0 of 3 replicates). With M34F I51K S55D the result was 460 µM (1 of 3 replicates). Variant S52D S55E D107F showed no signal (0 of 3 replicates). Variant S55A S63L showed 3.0 µM (3 of 3 replicates). Variant T28M S55L R101Q gave 1.3 µM (1 of 3 replicates).

For G26D S55M K65H, the assay gave 1.1 mM (1 of 3 replicates). For Y32F S55N G56Q, the assay gave no signal (0 of 3 replicates). For T28I G50R S55M, the assay gave 1.0 mM (2 of 3 replicates). With I51W S55Q G59T the result was no signal (0 of 3 replicates). Variant T28F F29C S55I showed no signal (0 of 3 replicates).

Variant F29M S55Q G56K showed 13 µM (1 of 3 replicates). For Y32A N54A S55F, the assay gave no signal (0 of 3 replicates). For F27V S55T S57F, the assay gave 200 nM (3 of 3 replicates). With M34E S55E Y105F the result was 2.2 µM (1 of 3 replicates). Variant S55D A61M G103F showed 77 µM (2 of 3 replicates).

Variant S55G G56H K65Y showed 590 nM (3 of 3 replicates). With D31I W53A S55T the result was 12 µM (1 of 3 replicates). Variant S55P G56Y K65A gave no signal (0 of 3 replicates). With Y32G S55E G102A the result was 76 µM (3 of 3 replicates). With Y32C G50C S55K the result was 380 µM (1 of 3 replicates).

For D30T G50A S55N, the assay gave no signal (0 of 3 replicates). Variant S55N V64W Y108E gave 40 µM (1 of 3 replicates). With A33W S55C A61K the result was 400 µM (1 of 3 replicates).

Nonspecific signal, from three strains lacking the peptide, appeared in 21% of pairings of library AAYL51, centred on 34 µM (5% of these signals below 1.8 µM); values are not corrected for it.